For this test, the target named is prostanoid EP2 receptor (Homo sapiens, UniProt P43116). The experiment in a line: radioligand competition with 3H-PGE2 on transfected whole cells. Type of test: cell-based. (Loss of bound radioactivity is the signal in a displacement assay; it reports binding, not function.)

Chains of the proteins cited; added tags and fusions are not shown. Lines headed by an entry give the natural chain unless they say otherwise; changes in a name come on top.
UniProt P43116: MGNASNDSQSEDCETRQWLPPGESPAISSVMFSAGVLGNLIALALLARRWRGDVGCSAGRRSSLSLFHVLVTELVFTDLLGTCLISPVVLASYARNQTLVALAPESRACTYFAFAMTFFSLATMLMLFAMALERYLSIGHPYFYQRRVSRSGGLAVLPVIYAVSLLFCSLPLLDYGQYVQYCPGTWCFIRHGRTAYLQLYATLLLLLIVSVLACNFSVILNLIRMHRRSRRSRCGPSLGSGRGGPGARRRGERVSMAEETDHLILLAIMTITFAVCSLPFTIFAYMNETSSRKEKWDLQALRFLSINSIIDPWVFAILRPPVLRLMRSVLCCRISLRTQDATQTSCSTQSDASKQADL

Molecules are shown by their SMILES. pEC50: −log10 of the molar value.

In the case of `CCCCC[C@H](O)/C=C/[C@H]1[C@H](O)CC(=O)[C@@H]1C/C=C\CCCC(=O)O` [PGE2], the pEC50 – broadly, the negative decadic logarithm of the EC50, by convention in mol/L – was 7.21.

The values are drawn from article PMC3072460 (The Journal of nutritional biochemistry, 2010).
